Measurements published in publication PMC4839290 (Journal of medicinal chemistry, 2015).

Chains of the proteins cited; added tags and fusions are not shown. Residues count along the entry.
UniProt Q14832, 23-879: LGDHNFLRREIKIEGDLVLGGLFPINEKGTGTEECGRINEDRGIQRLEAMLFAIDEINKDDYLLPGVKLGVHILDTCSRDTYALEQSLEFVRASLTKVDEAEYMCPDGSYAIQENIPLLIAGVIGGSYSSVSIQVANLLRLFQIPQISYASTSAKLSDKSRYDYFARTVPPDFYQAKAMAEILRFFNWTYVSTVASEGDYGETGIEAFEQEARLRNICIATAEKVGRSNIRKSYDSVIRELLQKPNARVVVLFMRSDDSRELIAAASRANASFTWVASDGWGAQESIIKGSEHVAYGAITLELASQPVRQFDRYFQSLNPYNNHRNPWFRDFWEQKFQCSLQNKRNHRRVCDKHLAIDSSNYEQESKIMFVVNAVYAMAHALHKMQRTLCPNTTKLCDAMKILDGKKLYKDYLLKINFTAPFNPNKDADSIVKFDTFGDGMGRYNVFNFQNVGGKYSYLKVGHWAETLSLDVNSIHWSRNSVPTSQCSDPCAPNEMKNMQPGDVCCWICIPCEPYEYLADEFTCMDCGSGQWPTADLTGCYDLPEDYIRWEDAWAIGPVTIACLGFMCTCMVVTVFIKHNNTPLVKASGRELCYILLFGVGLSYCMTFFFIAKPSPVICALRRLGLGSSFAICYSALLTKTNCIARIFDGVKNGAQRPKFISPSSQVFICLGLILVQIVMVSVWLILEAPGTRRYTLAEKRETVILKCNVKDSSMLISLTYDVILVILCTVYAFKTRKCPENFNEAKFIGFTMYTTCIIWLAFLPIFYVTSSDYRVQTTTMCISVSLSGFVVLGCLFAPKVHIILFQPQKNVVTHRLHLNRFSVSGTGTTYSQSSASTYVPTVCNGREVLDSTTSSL
UniProt P41594, 21-1212: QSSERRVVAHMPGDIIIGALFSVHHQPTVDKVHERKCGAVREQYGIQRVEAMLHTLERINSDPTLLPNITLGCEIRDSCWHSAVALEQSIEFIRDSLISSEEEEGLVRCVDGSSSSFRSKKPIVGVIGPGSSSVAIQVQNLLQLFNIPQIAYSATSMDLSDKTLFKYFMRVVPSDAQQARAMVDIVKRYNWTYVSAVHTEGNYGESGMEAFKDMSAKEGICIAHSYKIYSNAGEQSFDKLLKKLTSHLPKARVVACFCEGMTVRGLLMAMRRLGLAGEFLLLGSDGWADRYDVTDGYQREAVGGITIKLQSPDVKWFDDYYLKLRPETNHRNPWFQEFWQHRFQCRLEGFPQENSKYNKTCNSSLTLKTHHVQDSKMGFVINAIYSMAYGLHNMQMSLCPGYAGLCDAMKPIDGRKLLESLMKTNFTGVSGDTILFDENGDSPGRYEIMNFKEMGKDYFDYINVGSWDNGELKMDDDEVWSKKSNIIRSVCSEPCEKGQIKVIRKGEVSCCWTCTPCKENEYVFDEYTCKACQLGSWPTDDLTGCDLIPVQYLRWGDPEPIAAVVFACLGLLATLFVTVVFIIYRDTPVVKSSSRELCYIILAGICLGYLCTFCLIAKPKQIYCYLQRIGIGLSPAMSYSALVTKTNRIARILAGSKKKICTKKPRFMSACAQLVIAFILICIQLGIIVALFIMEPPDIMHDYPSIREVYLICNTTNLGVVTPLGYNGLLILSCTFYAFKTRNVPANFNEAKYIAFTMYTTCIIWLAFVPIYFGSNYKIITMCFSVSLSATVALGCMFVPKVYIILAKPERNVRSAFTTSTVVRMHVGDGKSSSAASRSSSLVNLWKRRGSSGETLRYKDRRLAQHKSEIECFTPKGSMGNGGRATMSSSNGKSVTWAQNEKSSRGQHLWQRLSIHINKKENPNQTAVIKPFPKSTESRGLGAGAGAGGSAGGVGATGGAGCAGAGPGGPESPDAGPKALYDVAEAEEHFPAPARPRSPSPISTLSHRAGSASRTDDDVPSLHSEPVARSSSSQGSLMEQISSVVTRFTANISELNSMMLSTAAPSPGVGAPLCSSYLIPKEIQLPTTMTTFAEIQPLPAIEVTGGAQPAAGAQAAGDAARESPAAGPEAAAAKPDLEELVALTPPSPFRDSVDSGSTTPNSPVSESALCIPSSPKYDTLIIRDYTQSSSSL
UniProt O15303, 25-877: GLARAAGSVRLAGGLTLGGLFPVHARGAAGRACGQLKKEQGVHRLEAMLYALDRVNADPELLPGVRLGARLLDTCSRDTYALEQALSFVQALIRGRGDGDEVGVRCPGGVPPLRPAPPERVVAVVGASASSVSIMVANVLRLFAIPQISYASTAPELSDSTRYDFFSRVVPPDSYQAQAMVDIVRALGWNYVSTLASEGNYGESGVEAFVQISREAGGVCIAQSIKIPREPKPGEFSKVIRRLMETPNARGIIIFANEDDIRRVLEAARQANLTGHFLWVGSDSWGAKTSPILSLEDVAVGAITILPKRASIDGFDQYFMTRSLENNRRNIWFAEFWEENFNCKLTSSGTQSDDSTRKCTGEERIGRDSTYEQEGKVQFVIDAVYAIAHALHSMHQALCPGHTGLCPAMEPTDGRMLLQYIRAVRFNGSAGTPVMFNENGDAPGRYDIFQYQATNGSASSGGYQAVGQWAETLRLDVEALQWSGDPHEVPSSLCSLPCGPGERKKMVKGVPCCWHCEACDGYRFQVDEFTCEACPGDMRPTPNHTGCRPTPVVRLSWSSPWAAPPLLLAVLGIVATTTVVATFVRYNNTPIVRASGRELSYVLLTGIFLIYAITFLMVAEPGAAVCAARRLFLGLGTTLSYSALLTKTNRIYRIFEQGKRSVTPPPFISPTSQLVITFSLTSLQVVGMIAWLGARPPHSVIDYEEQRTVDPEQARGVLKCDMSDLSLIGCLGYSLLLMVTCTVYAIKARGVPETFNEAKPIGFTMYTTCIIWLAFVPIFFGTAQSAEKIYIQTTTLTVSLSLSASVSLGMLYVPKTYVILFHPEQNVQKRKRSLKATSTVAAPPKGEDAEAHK
UniProt Q14831, 35-915: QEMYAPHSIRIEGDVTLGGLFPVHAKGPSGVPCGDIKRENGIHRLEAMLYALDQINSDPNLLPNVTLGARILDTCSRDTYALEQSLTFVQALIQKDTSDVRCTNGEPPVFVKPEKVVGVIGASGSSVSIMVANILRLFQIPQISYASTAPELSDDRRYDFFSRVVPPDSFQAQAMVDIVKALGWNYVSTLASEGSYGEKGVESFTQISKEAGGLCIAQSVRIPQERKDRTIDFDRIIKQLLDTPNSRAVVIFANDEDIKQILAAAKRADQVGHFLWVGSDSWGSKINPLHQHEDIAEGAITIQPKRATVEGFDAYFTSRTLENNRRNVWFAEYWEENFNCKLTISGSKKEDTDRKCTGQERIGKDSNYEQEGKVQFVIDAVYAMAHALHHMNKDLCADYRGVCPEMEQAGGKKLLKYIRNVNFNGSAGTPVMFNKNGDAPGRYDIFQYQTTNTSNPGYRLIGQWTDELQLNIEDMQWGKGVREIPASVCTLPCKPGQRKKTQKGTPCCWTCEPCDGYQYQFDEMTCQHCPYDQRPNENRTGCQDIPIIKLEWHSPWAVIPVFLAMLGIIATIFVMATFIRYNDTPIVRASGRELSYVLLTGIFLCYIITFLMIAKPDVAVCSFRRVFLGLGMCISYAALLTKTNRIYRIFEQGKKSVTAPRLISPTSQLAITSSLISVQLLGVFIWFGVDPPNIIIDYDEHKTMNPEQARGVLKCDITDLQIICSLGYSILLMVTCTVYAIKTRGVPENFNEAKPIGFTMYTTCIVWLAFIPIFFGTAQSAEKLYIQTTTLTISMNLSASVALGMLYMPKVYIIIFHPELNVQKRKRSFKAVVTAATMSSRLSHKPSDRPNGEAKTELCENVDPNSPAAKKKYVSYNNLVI
UniProt O00222, 34-908: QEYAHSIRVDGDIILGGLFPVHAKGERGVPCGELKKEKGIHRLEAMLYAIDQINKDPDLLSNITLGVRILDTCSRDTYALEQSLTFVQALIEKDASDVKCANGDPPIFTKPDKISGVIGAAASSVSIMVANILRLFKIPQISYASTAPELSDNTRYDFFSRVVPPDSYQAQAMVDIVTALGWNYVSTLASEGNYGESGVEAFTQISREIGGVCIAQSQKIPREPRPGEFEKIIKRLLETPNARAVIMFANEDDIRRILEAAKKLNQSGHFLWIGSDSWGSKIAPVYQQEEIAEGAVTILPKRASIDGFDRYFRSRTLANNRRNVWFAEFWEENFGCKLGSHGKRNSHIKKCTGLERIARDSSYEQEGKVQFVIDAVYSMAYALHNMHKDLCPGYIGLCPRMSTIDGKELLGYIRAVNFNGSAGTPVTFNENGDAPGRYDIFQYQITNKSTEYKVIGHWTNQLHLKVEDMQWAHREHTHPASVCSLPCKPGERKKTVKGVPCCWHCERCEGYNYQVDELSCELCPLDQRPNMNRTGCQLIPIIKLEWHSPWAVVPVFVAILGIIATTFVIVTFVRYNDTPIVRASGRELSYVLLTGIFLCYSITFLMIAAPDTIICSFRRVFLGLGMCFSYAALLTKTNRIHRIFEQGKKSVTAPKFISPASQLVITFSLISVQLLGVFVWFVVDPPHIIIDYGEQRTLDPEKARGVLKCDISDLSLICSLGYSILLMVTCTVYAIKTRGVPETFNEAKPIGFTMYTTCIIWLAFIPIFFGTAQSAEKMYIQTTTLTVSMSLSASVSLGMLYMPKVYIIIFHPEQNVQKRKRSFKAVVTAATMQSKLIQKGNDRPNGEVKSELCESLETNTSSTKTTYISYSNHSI
UniProt Q14833, 33-912: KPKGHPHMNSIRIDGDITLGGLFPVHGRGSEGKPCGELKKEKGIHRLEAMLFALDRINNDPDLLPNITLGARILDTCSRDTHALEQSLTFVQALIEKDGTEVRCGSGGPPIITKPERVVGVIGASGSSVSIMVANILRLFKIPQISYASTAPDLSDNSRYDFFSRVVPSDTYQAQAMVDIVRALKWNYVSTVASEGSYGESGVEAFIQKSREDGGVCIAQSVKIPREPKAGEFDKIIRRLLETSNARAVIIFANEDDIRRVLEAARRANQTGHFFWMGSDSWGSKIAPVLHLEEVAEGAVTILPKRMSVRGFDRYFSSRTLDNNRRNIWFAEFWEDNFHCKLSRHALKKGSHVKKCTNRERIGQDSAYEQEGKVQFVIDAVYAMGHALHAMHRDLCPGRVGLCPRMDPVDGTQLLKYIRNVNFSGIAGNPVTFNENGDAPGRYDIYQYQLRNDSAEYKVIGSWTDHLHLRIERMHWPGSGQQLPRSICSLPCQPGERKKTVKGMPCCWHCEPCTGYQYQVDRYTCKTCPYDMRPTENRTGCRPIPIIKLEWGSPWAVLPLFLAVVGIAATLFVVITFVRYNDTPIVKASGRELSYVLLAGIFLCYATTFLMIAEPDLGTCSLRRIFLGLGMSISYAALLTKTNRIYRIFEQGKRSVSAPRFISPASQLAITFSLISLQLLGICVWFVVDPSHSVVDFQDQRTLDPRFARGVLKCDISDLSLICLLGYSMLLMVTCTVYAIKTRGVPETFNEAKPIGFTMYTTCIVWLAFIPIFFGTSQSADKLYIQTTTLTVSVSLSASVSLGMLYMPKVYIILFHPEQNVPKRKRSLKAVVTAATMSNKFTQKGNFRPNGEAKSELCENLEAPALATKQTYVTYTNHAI

Key:
[1] = In vitro intrinsic and hepatic clearance, human; assay type: in vitro ADME
mGlu2 = test: Standard fold-shift selectivity assay; assay type: cell-based; settings: 10 μM compound
mGlu3 = mGlu3 (Homo sapiens, UniProt Q14832); test: Standard fold-shift selectivity assay; assay type: cell-based; settings: 10 μM compound
mGlu5 = mGlu5 (Homo sapiens, UniProt P41594); test: Standard fold-shift selectivity assay; assay type: cell-based; settings: 10 μM compound
mGlu6 = mGlu6 (Homo sapiens, UniProt O15303); test: Standard fold-shift selectivity assay; assay type: cell-based; settings: 10 μM compound
mGlu7 = mGlu7 (Homo sapiens, UniProt Q14831); test: Standard fold-shift selectivity assay; assay type: cell-based; settings: 10 μM compound
mGlu8 = mGlu8 (Homo sapiens, UniProt O00222); test: Standard fold-shift selectivity assay; assay type: cell-based; settings: 10 μM compound
hmGlu4 = hmGlu4 (Homo sapiens, UniProt Q14833); test: Calcium mobilization assay, mGlu4 PAM activity; assay type: cell-based; settings: hmGlu4 EC50 over hmGlu1 EC50

Row | Compound | human CLHEP [1] [mL/min/kg] | fold shift of glutamate CRC at mGlu2 (mGlu2) [fold] | fold shift of glutamate CRC at mGlu3 (mGlu3) [fold] | fold shift of glutamate CRC at mGlu5 (mGlu5) [fold] | fold shift of glutamate CRC at mGlu6 (mGlu6) [fold] | fold shift of glutamate CRC at mGlu7 (mGlu7) [fold] | fold shift of glutamate CRC at mGlu8 (mGlu8) [fold] | fold selective vs mGlu4 (hmGlu4) [fold]
1 | O=C(Nc1ccc(N2C(=O)c3cccc(Cl)c3C2=O)c(Cl)c1)c1ncccc1Cl [compound 8, reference compound] | 9.46 |  |  |  |  |  |  | 
2 | Cc1ccoc1C(=O)Nc1ccc(N2C(=O)c3ccc(Cl)cc3C2=O)c(Cl)c1 [17d, N-(3-Chloro-4-(5-chloro-1,3-dioxoisoindolin-2-yl)phenyl)-3-methylfuran-2-carboxamide] | 2.54 | < 2 | < 2 | < 2 | < 2 | < 2 | < 2 | 
3 | O=C(Nc1nc(C(F)(F)F)co1)C1c2ccccc2Oc2ccccc21 [compound 5, reference compound] | 19.4 |  |  |  |  |  |  | 
4 | Cc1ccoc1C(=O)Nc1ccc(N2C(=O)c3ccncc3C2=O)c(Cl)c1 [17g, N-(3-Chloro-4-(1,3-dioxo-1,3-dihydro-2H-pyrrolo[3,4-c]-pyridin-2-yl)phenyl)-3-methylfuran-2-carboxamide] | 18.6 | < 2 | < 2 | < 2 | < 2 | < 2 | < 2 | >100
